Like-named read-outs stand apart in the source and are kept apart here.
Tested on: B. subtilis cells

With “Janelia Fluor X 554 (JFX554) HaloTag ligand” as the substance, how does the “Fold-change in CFUs/mL, labeled” value (Halo-DnaE DnaX-mYPet strain, 1 nM JFX554, after 1 h incubation, mean ± standard deviation (mock-labeled 2.6 ± 0.5)) read?
Its value is 2.7 ± 0.7.

What about the “Fold-change in CFUs/mL, labeled” value (PolC-Halo DnaX-mYPet strain, 500 pM JFX554, after 1 h incubation, mean ± standard deviation (mock-labeled 2.1 ± 0.2)) of the same substance?
The value was 2.3 ± 0.5.

— paper PMC12309361 (Nucleic Acids Research, 2025)
